Measured values taken from patent US8609833B2, “Purine derivatives as adenosine A1 receptor agonists and methods of use thereof” (Inotek Pharmaceuticals Corporation, priority 2004, dated 2013).

Protein sequences, listed by entry. Tags and fused reporters are not part of them.
UniProt P0DMS8, whole entry: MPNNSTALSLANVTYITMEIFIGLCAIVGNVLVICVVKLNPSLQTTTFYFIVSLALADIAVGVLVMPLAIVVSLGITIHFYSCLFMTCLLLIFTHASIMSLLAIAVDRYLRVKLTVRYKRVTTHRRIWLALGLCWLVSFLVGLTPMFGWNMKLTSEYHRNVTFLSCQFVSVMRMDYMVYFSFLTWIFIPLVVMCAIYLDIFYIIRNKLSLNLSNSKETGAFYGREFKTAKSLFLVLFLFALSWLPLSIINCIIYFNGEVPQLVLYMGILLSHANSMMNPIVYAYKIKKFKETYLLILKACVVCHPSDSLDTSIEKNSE

Target: human recombinant A3 adenosine receptor (Homo sapiens (Human), UniProt P0DMS8)
Experiment: Adenosine A3 receptor binding, displacement of [3H]NECA
Conditions: displacement of specific [3H]NECA binding, HEK cells; geometric mean
Procedure: Membranes for radioligand binding experiments were prepared from fresh or frozen cells as described in Klotz et al., Naunyn-Schmiedeberg's Arch. […] The cell suspension was then homogenized in ice-cold hypotonic buffer (5 mM Tris/HCl, 2 mM EDTA, pH 7.4) and the homogenate was spun for 10 minutes (4° C.) at 1,000 g.
Nonspecific binding was determined in the presence of 100 μM R-PIA and 1 mM theophylline, respectively. For details see Klotz et al., Naunyn-Schmiedeberg's Arch.

Question: With `O=[N+]([O-])OC[C@H]1O[C@@H](n2cnc3c(NC4CCCC4)nc(Cl)nc32)[C@H](O)[C@@H]1O` [Compound 16] as the compound, how does the Ki read?
Answer: 0.513 µM
